The results in this text go back to patent US12397096B2, “Red blood cells for drug delivery” (POLITECNICO DI MILANO, priority 2019, dated 2025).

For the data set, the system named is red blood cells.

Consider FITC-dextran [FITC-dextran 40 kDa], for which the “red blood cell morphology / damage after encapsulation” value was “not damaged by the presence of the encapsulated dextran”.
